Values quoted from earlier work as cited in patent US20240180818A1, “SKIN CARE FORMULATIONS WITH HYDROPHILIC ACTIVE INGREDIENT” (Metselaar Amsterdam Beheer B.V., priority 2021, published 2024).

System: young adult rats of both sexes

tocopheryl polyethylene glycol 1000 succinate [TPGS]
oral LD50: more than 7 g/kg
